We go through one molecule from patent US11629146B2, “Substituted [1,2,4]triazolo[4,3-a]pyrazines as modulators of sodium channel activity” (Praxis Precision Medicines, Inc., priority 2016, dated 2023).

Sequences of proteins named here, by UniProt entry; tags and fusion partners are left off.
UniProt Q9UQD0, whole entry: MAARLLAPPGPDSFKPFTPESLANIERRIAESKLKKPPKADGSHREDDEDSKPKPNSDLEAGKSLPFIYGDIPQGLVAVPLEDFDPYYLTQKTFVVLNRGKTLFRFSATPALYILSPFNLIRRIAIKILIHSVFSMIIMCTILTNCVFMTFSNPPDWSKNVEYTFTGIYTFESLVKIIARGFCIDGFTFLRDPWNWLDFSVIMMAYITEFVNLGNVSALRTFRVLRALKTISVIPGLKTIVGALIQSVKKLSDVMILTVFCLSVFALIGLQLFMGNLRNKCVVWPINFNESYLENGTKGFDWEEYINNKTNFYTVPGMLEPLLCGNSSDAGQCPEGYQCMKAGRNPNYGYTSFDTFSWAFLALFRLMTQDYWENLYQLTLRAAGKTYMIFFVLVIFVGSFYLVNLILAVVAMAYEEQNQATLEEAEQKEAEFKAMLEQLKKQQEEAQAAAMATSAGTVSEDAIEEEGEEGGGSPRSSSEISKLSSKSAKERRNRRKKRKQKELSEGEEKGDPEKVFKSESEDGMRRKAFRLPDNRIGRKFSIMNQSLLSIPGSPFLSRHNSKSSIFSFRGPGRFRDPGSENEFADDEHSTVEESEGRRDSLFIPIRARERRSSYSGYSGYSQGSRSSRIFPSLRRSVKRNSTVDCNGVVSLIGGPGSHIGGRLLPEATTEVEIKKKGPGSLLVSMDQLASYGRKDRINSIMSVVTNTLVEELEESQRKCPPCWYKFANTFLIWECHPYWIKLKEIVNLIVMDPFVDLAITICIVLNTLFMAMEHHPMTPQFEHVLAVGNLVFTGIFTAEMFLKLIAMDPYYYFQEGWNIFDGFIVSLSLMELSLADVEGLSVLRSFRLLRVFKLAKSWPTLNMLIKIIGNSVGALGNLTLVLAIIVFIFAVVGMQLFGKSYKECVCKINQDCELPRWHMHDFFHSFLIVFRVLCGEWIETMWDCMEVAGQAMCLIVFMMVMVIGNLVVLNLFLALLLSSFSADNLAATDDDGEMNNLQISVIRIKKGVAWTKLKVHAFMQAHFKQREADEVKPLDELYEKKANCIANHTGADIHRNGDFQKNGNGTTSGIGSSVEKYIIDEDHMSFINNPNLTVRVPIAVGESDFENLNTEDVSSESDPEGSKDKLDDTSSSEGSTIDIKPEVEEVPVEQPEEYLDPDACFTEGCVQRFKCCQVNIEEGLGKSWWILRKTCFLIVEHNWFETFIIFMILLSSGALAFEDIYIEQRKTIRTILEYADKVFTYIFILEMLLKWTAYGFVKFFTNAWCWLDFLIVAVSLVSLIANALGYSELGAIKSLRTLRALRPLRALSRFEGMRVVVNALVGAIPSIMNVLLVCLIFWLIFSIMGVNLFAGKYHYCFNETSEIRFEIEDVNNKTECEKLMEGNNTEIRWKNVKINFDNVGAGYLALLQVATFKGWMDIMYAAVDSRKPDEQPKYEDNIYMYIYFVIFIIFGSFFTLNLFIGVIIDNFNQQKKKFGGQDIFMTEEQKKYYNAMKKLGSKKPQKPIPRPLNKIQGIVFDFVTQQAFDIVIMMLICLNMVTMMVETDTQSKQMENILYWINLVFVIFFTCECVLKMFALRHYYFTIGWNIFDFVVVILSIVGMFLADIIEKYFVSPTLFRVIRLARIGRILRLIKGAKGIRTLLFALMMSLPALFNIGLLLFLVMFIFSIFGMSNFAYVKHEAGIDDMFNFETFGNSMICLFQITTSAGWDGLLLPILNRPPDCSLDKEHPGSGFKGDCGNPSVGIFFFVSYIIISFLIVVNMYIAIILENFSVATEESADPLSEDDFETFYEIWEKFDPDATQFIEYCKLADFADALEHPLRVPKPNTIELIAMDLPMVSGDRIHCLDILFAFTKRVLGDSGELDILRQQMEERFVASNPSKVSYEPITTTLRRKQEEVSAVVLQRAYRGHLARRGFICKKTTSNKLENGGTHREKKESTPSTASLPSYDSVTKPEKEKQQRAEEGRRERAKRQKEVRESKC

The structures appear in SMILES notation.

The assay concerns the target human NaV1.6 (hNaV1.6) (Homo sapiens (Human), UniProt Q9UQD0). Put plainly: INaL inhibition at hNaV1.6, PatchXpress electrophysiology. It is filed as cell-based. The settings on record: HEK293, read-out: INaL v1.6 (1 μM, % Inhibition). The procedure: Functional characterization of exemplary compounds to modulate INaL expressed by the Nay 1.6 voltage-gated sodium channel was accomplished using the PatchXpress™ high throughput electrophysiology platform (Molecular Devices, Sunnyvale, Calif.). HEK-293 cells expressing recombinant, human NaV1.6 (hNaV1.6) were grown in DMEM/high-glucose Dulbecco's modified, 10% FBS, 2 mM sodium pyruvate, 10 mM HEPES and 400 μg/mL G418. Cells were grown to 50%-80% confluency prior to harvesting. […] The onboard liquid handling facility of the PatchXpress was used for dispensing cells and applying test compounds. Nay late currents were evoked by the application of 300 nM ATX-II. […] INaL amplitude and stability were determined by analyzing the mean current amplitude over the final 20 ms of the test pulse. […] Percent steady-state inhibition of INaL was calculated as: [(INaL_compound)/(INaL_control)]*100, where INaL_compound and INaL_control represent INaL recorded in the presence or absence of compound, respectively.

With `CN(C)c1nnc2cnc(-c3ccc(OC(F)(F)F)cc3)cn12` [Compound 153], the inhibition at 1 µM was less than 30%.

Usually inhibition stands for the relative decrease from the control value, in per cent.
